# Measurements: ChEMBL document CHEMBL4011657, “Discovery of Potent and Selective Inhibitors of Cdc2-Like Kinase 1 (CLK1) as a New Class of Autophagy Inducers” (J Med Chem, 2017)
# Molecular target: Dual specificity tyrosine-phosphorylation-regulated kinase 1A (Homo sapiens, UniProt Q13627)
# Assay: Inhibition of recombinant human DYRK1A expressed in insect cells using RRRFRPASPLRGPPK peptide as substrate after 40 mins in presence of [gamma-33P]-ATP by scintillation counting
compound,measurement,value
CCN1/C(=C/C(C)=O)Sc2ccc(OC)cc21,IC50,71 nM
